# DT40 TDP1 no CPT: qHTS for Inhibitors of human tyrosyl-DNA phosphodiesterase 1 (TDP1): qHTS in cells in absence of CPT; DT40 Tdp1-/- hTDP1 cells, no CPT, ATP luminescence, 48 h; 420,000 tested, 15% active; Potency, µM (highest dose often 46.2 µM), hits mostly inhibitors; also: nearly all actives have a fitted effect of over 55% in size
#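 Camptothecin absent (DMSO only). Human TDP1-complemented DT40 knockout cells, 400 cells/well, 37 °C for minimum 48 hr; ATP measured via CellTiter-Glo, 30 min dark incubation, luminescence.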
# uPA generation: cell surface uPA generation inhibition. cell surface uPA generation assay, qHTS. Potency, µM (doses to about 38.3 µM), most hits filed as inhibitors. 330,000 tested, 0.31% active. AID 540303; active = well fitted inhibition curve with a large enough effect; inconclusive = small, poorly fitted or top-dose-only effect; inactive = no such curve, though single readings can be large or run the other way; tested in mouse RAW 264.7 cells; also: nearly all actives have a fitted effect of over 55% in size
# miR-21 reporter: miR-21 reporter, rising signal; HeLa miR-21 FLuc reporter, luciferase, 48 h; Potency, µM (highest dose often 38.3 µM); 340,000 tested, under 10 active; AID 2288; active = well fitted rising curve with a large enough effect; inconclusive = small, poorly fitted or top-dose-only effect; inactive = no such curve, though single readings can be large or run the other way;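 further: miR-21 action dims this reporter so a rising signal means less miR-21 action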
#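 Compounds were titrated across several concentrations (up to approximately 40 uM) and incubated 48 hours with HeLa miR-21-FLuc reporter cells (miR-21 target sequence downstream of FLuc, endogenous miR-21). Readout was firefly luciferase luminescence after lytic detection reagent.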
# TDP1 cell CPT: DT40-hTDP1 cell growth loss with CPT; chicken DT40 Tdp1-/-;hTDP1 cells + 20 nM CPT, ATP luminescence, 48 h; Potency, µM (highest dose often 46.2 µM), hits mostly inhibitors; 420,000 tested, 12% active; AID 686979; also: nearly all actives have a fitted effect of over 55% in size
#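 Chicken DT40 Tdp1-/- cells complemented with human TDP1, 400 cells/well, exposed to compounds plus 20 nM camptothecin for at least 48 h at 37 C; viability read as ATP content by CellTiter-Glo luminescence.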
# TDP1 block: TDP1 (human) enzyme inhibition; Potency, µM (titrated, usually from 130 µM), most hits filed as inhibitors; 350,000 tested, 0.28% active; Q9NUW8; recombinant TDP1, AlphaScreen DNA substrate cleavage; also: nearly all actives have a fitted effect of over 40% in size
#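 Tdp1 1 nM final; 15 min RT w/ cpd; substrate 15 nM, 5 min; beads 10 ug/ml, 10 min; AlphaScreen read. Neg ctrl: no enzyme.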
# Hits are given with their value; – = inactive; ? = inconclusive; · = not tested or not shown; [ ] = another dose, or the depositor's remark. In the library only some 16% were active in any assay of this set; here they are far more common. Unless noted, calls follow the shape of the dose curve; as a rule, active = well fitted curve in the direction sought with a large enough effect; inconclusive = small, poorly fitted or top-dose-only effect, or another doubt; inactive = no such curve, though single readings can be large; an effect the other way counts as inactive or inconclusive.
SMILES,DT40 TDP1 no CPT,uPA generation,miR-21 reporter,TDP1 cell CPT,TDP1 block
COc1cc2c(cc1N)-c1ccc(N)cc1C2=O,16µM,·,·,?,·
Cc1noc(C)c1CSCC(=O)N1CCN(c2ccc(F)cc2)CC1,18µM,–,–,?,–
O=C(CSCc1ccc(F)cc1)N1CCN(c2ccc(Cl)cc2)CC1,21µM,·,–,16µM,–
Cc1cccc(N2CCN(C(=O)CSCc3c(C)noc3C)CC2)c1C,7.3µM,–,–,21µM,–
O=C(Cc1ccc(Cl)cc1)N1CCN(c2ccc(F)cc2)CC1,?,–,–,?,·
CC1(C)CC(=O)c2c(oc3ccc(NS(=O)(=O)c4ccc(C(=O)O)cc4)cc23)C1,–,–,–,–,–
COc1ccc(C(=O)C(C)[n+]2ccc(C)c3ccccc32)cc1[N+](=O)[O-] (centres undefined),7.3µM,–,–,18µM,·
COc1ccc(N2CCN(C(=O)c3cn(CC(C)C)c(=O)c4c3c3ccccc3n4C)CC2)cc1,23µM,·,–,?,–
Cc1ccc(C)c(N2CCN(C(=O)c3cn(CC(C)C)c(=O)c4c3c3ccccc3n4C)CC2)c1,23µM,·,–,?,–
Cc1cccc(N2CCN(C(=O)c3cn(C)c(=O)c4c3c3ccccc3n4C)CC2)c1C,22µM,·,–,22µM,–
Cc1cccc(N2CCN(C(=O)c3cn(CC(C)C)c(=O)c4c3c3ccccc3n4C)CC2)c1C,5.2µM,·,–,8.2µM,–
COCCn1cc(C(=O)N2CCN(C)CC2)c2c3ccccc3n(C)c2c1=O,?,–,–,–,–
Cc1ccc(-n2nc(C(=O)N3CCN(c4cc(C)ccc4C)CC3)c3c4ccccc4n(C)c3c2=O)cc1,–,·,–,–,–
C/C=C/OC(=O)NC(c1ccccc1)[C@@]1(C(=O)OCC)CCCC1=O (some centres undefined),·,·,·,·,–[21 µM]
CCOC(=O)C1=C(C)NC2=C(C(=O)CC(C)(C)C2)C1c1ccc2c(c1)CCCN2C (centres undefined),–,–,–,–,–
COCCn1c(=O)c(-c2cccc(C#N)c2)nc2cnc(N3CCNCC3)nc21,?,·,·,–,·
Cc1ccc(N(C)C(=O)C2CCN(S(=O)(=O)c3ccc4c(c3)oc(=O)n4C)CC2)cc1,?,–,–,?,–
COc1ccc(OCCNS(=O)(=O)c2ccc3oc4ccccc4c3c2)cc1,–,–,–,?,–
CN(CCOc1ccccc1)S(=O)(=O)c1ccc2oc3ccccc3c2c1,23µM,–,–,?,–
N#Cc1cc(-c2ccccc2)cnc1Cl,–,·,–,–,·
N#Cc1ccc(-c2c(-c3ccccc3)ncc3cc(F)ccc23)cc1,16µM,–,·,10µM,–
COC(=O)c1ccc(-c2c(-c3ccccc3)ncc3cc(F)ccc23)cc1,26µM,–,·,13µM,–
COc1cc2cnc(-c3ccccc3)c(C(=O)c3ccc(F)cc3)c2cc1OC,23µM,?,·,18µM,–
COC(=O)c1ccc(-c2n[nH]c(=O)c3ccccc23)cc1,–,–,–,–,–
CC(C)CN1C(=O)C(=O)N(CC(=O)Nc2cc(Cl)ccc2Oc2ccccc2)C1=O,–,–,–,–,–
SMILES,DT40 TDP1 no CPT,uPA generation,miR-21 reporter,TDP1 cell CPT,TDP1 block
CN(C)c1ccc(C(CNS(=O)(=O)c2ccc(F)cc2)c2c[nH]c3ccccc23)cc1 (centres undefined),15µM,–,–,?,–
CN(C)c1ccc(C(CNC(=O)c2ccccc2Br)c2c[nH]c3ccccc23)cc1 (centres undefined),–,–,–,–,–
CCOC(=O)c1ccc(S(=O)(=O)NCC(c2ccc(N(C)C)cc2)c2c[nH]c3ccccc23)cc1 (centres undefined),?,–,–,?,–
CN(C)c1ccc(C(CNC(=O)c2ccc(C#N)cc2)c2c[nH]c3ccccc23)cc1 (centres undefined),21µM,–,–,?,–
CC(=O)c1ccc(S(=O)(=O)Nc2ccc(-c3ccc(N4CCCCC4)nn3)cc2)cc1,–,·,–,–,–
Cc1ccc(Nc2nc(N)nc(CN3CCN(Cc4ccc5c(c4)OCO5)CC3)n2)cc1,18µM,–,–,18µM,–
Cc1ccc(Nc2nc(N)nc(CN3CCN(Cc4ccc5c(c4)OCO5)CC3)n2)cc1C,18µM,–,–,?,–
Cc1nn(-c2ccc(F)cc2)c2c1cc(C#N)c1nc3ccccc3n12,–,–,–,–,–
CC(C)(C)C(=O)NC(CC(=O)O)c1ccccc1 (centres undefined),–,–,–,–,–
CCCCOc1ccc(/C=C(\C(=O)O)c2ccc(S(=O)(=O)N3CCCC3)s2)cc1,?,–,·,?,–
Cc1cccc(/C=C(\C(=O)O)c2ccc(S(=O)(=O)N3CCCC3)s2)c1,–,–,·,–,11µM
COc1cc(/C=C(\C(=O)O)c2ccc(S(=O)(=O)N3CCCC3)s2)ccc1OCCC(C)C,?,–,·,23µM,·
COc1ccc(C(C)=O)cc1COC(=O)CSCC(=O)Nc1ccc(C)cc1,–,–,·,–,–
Cc1nn(C)c2c1c(C(F)(F)F)cc(=O)n2C(C)C(=O)NCCc1ccc(Cl)cc1 (centres undefined),?,·,–,15µM,–
Cc1nn(C)c2c1c(C(F)(F)F)cc(=O)n2C(C)C(=O)N1CCN(c2ccccc2)CC1 (centres undefined),?,·,?,23µM,–
Cc1ccc(C)c(NC(=O)C(C)n2c(=O)cc(C(F)(F)F)c3c(C)nn(C)c32)c1 (centres undefined),–,·,–,–,–
COc1ccc(N2CCN(C(=O)C(C)n3c(=O)cc(C(F)(F)F)c4c(C)nn(C)c43)CC2)cc1 (centres undefined),12µM,·,–,12µM,–
O=C(Cn1c(=O)oc2cc(S(=O)(=O)N3CCCC3)ccc21)N1CCN(c2ccccn2)CC1,–,–,–,–,–
COc1cccc(CCc2nnc(CCC(=O)N3CCCC3c3nccs3)o2)c1 (centres undefined),–,?,–,–,–
O=C(COC(=O)c1ccc(Cl)nc1)NC(=O)c1ccc(OC(F)F)cc1,–,–,·,–,–
COC(=O)C(CCSC)NC(=O)C1CCN(c2ncnc3c2nc2n3CCCCC2)CC1 (centres undefined),–,·,–,–,–
O=C(Nc1cccc(C(F)(F)F)c1)OCCN1CCN(Cc2ccccc2)CCC1=O,?,–,–,21µM,–
CN(C)C(=O)C(OC(=O)c1ccc2c(c1)CCCC2)c1ccccc1 (centres undefined),21µM,–,–,?,–
CCOc1ccc(C(=O)Nc2ccccc2CC)cc1[N+](=O)[O-],–,–,–,–,–
CCOc1ccc(C(=O)NC(=S)Nc2ccc(N3CCC(C)CC3)cc2)cc1[N+](=O)[O-],12µM,–,–,?,–

# Bioassay records: PubChem, National Center for Advancing Translational Sciences (NCATS)
